Data from ChEMBL document CHEMBL1148720, “Extensive SAR and computational studies of 3-{4-[(benzylmethylamino)methyl]phenyl}-6,7-dimethoxy-2H-2-chromenone (AP2238) derivatives” (J Med Chem, 2007).

By UniProt entry, the sequences of proteins in these tests, tags left out. Where a name states a change or a piece, a line headed by the entry shows the natural chain unless it says otherwise.
UniProt P22303: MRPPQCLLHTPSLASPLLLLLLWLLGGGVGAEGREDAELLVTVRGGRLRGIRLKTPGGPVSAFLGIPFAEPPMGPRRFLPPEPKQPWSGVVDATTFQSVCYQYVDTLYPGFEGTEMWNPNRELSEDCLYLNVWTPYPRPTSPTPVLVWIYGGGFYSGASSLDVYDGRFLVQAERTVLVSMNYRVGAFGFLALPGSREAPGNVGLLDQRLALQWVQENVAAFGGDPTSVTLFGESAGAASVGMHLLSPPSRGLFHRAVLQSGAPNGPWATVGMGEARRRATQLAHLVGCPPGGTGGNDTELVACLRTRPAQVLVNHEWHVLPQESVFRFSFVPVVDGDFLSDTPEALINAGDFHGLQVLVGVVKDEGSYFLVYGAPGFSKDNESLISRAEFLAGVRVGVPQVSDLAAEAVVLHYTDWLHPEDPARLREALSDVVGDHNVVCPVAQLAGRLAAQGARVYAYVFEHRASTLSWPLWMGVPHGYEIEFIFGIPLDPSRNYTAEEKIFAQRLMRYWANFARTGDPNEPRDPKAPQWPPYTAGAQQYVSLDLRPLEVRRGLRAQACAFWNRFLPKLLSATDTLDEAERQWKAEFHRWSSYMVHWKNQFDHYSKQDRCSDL

Molecular target: Acetylcholinesterase (Homo sapiens, UniProt P22303)
Experiment: Inhibition of human recombinant AChE

Compound: COc1cc2cc(-c3ccc(CN(C)Cc4ccc([N+](=O)[O-])cc4)cc3)c(=O)oc2cc1OC
- IC50: 24.6 µM
